The numbers were not newly measured in US20060003989A1, “Compositions and methods using acetylcholinesterase (ACE) inhibitors to treat central nervous system (CNS) disorders in mammals” (priority 2002, published 2006), which cites them from elsewhere.

This series has as its system cholinesterase. The conditions noted are these: in rats; cited from earlier work.

Take `COc1cc2c(cc1OC)C(=O)C(CC1CCN(Cc3ccccc3)CC1)C2` (stereo not shown) [donepezil]: the “minimal therapeutic concentration (MTC)” value is given as 0.42 nmol/gm.
